ChEMBL document CHEMBL1157627, “A novel insulin secretagogue based on a dinucleoside polyphosphate scaffold” (J Med Chem, 2010)

By UniProt entry, the sequences of proteins in these tests, tags left out. Where a name states a change or a piece, a line headed by the entry shows the natural chain unless it says otherwise.
UniProt P47900: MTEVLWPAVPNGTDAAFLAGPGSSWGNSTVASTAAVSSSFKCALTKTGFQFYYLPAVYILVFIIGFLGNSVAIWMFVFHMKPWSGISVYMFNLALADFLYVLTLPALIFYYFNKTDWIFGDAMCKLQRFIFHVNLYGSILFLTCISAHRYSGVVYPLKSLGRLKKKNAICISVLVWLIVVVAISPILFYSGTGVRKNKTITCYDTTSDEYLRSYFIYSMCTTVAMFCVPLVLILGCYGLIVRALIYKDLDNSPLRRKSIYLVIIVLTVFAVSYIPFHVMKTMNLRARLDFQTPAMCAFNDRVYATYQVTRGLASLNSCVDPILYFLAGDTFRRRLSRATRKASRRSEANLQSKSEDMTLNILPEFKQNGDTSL

Target: P2Y purinoceptor 1 (Homo sapiens, UniProt P47900)
Test: Agonist activity at G-protein coupled P2Y1 receptor expressed in human 1321N1 cells assessed as increase in calcium by Fura2 assay
Format: functional, cell-based
Procedure, shortened: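 Human 1321N1 astrocytoma cells stably expressing turkey P2Y1 receptor, grown in DMEM with 5% FBS and G-418. Cell suspensions loaded with fura-2; [Ca2+]i read by dual-excitation spectrofluorometry at 37 °C in 10 mM HEPES-buffered saline pH 7.4 with 1 mM CaCl2 and 1 mM MgCl2. EC50 from maximal [Ca2+]i rise across concentrations; three experiments on separate days.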

EC50: 2.5 nM
SMILES: CSc1nc(N)c2ncn([C@@H]3O[C@H](COP(=O)(O)OP(=O)(O)O)[C@@H](O)[C@H]3O)c2n1 (single isomer, unassigned)
